According to patent US20180207138A1, “METHODS FOR THE TREATMENT OF TREMORS BY POSITIVE MODULATION OF SK CHANNELS” (Cadent Therapeutics, Inc., priority 2017, published 2018):

Target: SK2 channel (Homo sapiens, UniProt Q9H2S1)
Conditions: concentration that increases the basal current by 100%

Measured SK2 SC100 [µM]	SMILES
0.5	Cc1ccn(-c2nc(NC3CCC(F)(F)CC3)cc(N3CCOCC3)n2)n1 [Compound 2]
0.6	Cc1cc(C)n(-c2nc(NC3CCC(F)(F)CC3)cc(N3CCOCC3)n2)n1 [Compound 1]
